We go through one compound from PubChem BioAssay AID540303 (National Center for Advancing Translational Sciences (NCATS), 2011).

Shown are results outside the selection of hits, which stands elsewhere. Results filed as inconclusive are left out. Active and inactive are the calls of the source. Calls follow the shape of the dose curve; as a rule, active = well fitted inhibition curve with a large enough effect; inconclusive = small, poorly fitted or top-dose-only effect; inactive = no such curve, though single readings can be large or run the other way; tested in mouse RAW 264.7 cells.
% is scaled to controls: 0 for no effect and ±100 for the full control effect.

A short description of this test: qHTS for Inhibitors of Cell Surface uPA Generation. Also: nearly all actives have a fitted effect of over 55% in size. The settings on record: cell surface uPA generation assay; at 38.3 µM (top of the series). From the text: The overall objective of this project is to perform a quantitative high throughput screen (qHTS) to identify novel compounds that inhibit the generation of cell surface urokinase activity. The urokinase plasminogen activator (uPA) is one of the two primary endogenous systems that mediate plasminogen activation into plasmin. Members of this system, including uPA and its receptor (uPAR), are overexpressed in several malignant tumors. This system plays a major role in adhesion, migration, invasion and metastasis of cancer cells. Small molecule inhibitors of the uPA system will serve as probes to understand the molecular mechanisms of the uPA cascade and better understanding the microenvironmental circumstances that facilitate the activation of plasminogen by uPA, and finally may provide novel candidate agents for anticancer drug therapy.
[…] Upon inhibition of the uPA activation cascade, the subsequent cell surface uPA activity-dependent translocation of LF into the cytoplasm is inhibited. […]
Cultured RAW 264.7 were dispensed into 1536-well clear bottom, white walled tissue culture plates at a density of 4000 cells/well and were incubated overnight (12-16 h) at 37 C in a 5% CO2 incubator. […] Luminescence was detected using a Perkin Elmer ViewLuxtrade mark plate reader. […]
7.Reading plates by ViewLux with an exposure length of 5 seconds.
For orientation: qHTS replaces the single test concentration by a dilution series.
In the case of `COc1ccc(CC(C)NCC(O)c2ccc(O)c(NC=O)c2)cc1` (stereo unspecified), the activity change, negative = inhibition was inactive: -12.9%.
